Assay results taken from PMC11219871, “Epigenetic-based differentiation therapy for Acute Myeloid Leukemia” (Nature Communications, 2024).

Key:
Test in all cases: Cell proliferation assay: GI50
Format in all cases: cell-based, human
MOLM-13 = test system: MOLM-13
ML-2 = test system: ML-2
MV4-11 = test system: MV4-11
HL-60 = test system: HL-60

Measured: GI50

CCNC(=O)C[C@@H]1N=C(c2ccc(Cl)cc2)c2cc(OC)ccc2-n2c(C)nnc21 [Molibresib]
> 10 µM: MOLM-13; Homo sapiens, MOLM-13, 48 h | MOLM-13; Homo sapiens, MOLM-13, MOLM-13, replicates 1-3, µM for the other inhibitors | MOLM-13; MOLM-13, replicates 1-3, µM for the other inhibitors | ML-2; Homo sapiens, ML-2, 48 h | ML-2; Homo sapiens, ML-2, ML-2, replicates 1-3, µM for the other inhibitors | ML-2; ML-2, replicates 1-3, µM for the other inhibitors | MV4-11; Homo sapiens, MV4-11, 48 h | MV4-11; Homo sapiens, MV4-11, MV4-11, replicates 1-3, µM for the other inhibitors | MV4-11; MV4-11, replicates 1-3, µM for the other inhibitors | HL-60; HL-60, replicates 1-3, µM for the other inhibitors | HL-60; Homo sapiens, HL-60, 48 h | HL-60; Homo sapiens, HL-60, HL-60, replicates 1-3, µM for the other inhibitors
